The entries are a selection whose mix differs from that of the whole data set. Some results for these compounds are left out of this collection, so the calls shown say nothing about other tests. Activity calls are given as the source filed them.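 The calls were made as follows: active = inhibition above the mean of all tested compounds plus 3 SD (cut at about 40% in these data); inactive = the rest.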
assay: inhibitors of PMA/ionomycin-induced NF-kB reporter, primary screen, antigen receptor NF-kB inhibitor project, cell-based, HEK-293 luciferase reporter, luminescence (AID 465); conditions: HEK-293 NF-kB luciferase reporter, at 3 µM, stronger effect = higher value;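 also: 0% = stimulated DMSO wells and 100% = 10 µM reference inhibitor 5653914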
Procedure, shortened: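 System – HEK-293 cells with stable firefly luciferase reporter driven by four HIV NF-kB elements · Doses – one dose, 3 µM · Schedule – 1 h compound pre-incubation, 16 h PMA/ionomycin at 37 °C · Technique – luminescence from luciferase substrate reagent · Measure – percent inhibition normalized per plate to DMSO and reference-inhibitor controls · Replicates – tested once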

Row | Compound | inhibition
1 | O=C(OC1CN2CCC1CC2)C(CO)(c1ccccc1)c1ccccc1 (configuration not stated) | inactive: 18.7%
2 | CN(C)c1cccc(C(=O)NCC2(N(C)C)CCCCC2)c1 | inactive: 7%

Source: PubChem BioAssay AID465 (The Scripps Research Institute Molecular Screening Center, 2006)
